The source of these data is patent publication EP0182317A2, “Antineoplastic agent” (priority 1984, dated 1986).

A short description of this data set: 50 % lethal dose from toxic deaths in the Ehrlich carcinoma experiment. In kind it is in vivo, male ICR mouse. Particulars: mice bearing Ehrlich carcinoma, in the abdomen once a day for 7 days; 43200 min. The method, then:
About 10^6/0.2 ml of Ehrlich carcinoma cells were placed in an abdomen of each male ICR mouse of 5 weeks old. On the next day the administration of the test sample in the abdomen was started. The test sample was given once a day for 7 days. For an untreated group, a physiological saline solution was given in the same manner as above. […] The T/C percent (T/C x 100) was determined from the average survival periods (days) of the treated group and control group. Further, 50 % lethal dose (LD50) was determined from the number of the mice which died of toxicity of the test samples administered.

With “selenium oxychloride·isoquinoline complex [Compound 6]”, the LD50 was 8 - 16 mg/kg/day x7.
